Literature values, collected in patent publication US20250177420A1, “BCL-2 INHIBITORS AND AURORA KINASE INHIBITORS FOR TREATING CANCER” (Genome Research Limited, priority 2022, published 2025).

Sequences of proteins named here, by UniProt entry; tags and fusion partners are left off.
UniProt P10415, whole entry: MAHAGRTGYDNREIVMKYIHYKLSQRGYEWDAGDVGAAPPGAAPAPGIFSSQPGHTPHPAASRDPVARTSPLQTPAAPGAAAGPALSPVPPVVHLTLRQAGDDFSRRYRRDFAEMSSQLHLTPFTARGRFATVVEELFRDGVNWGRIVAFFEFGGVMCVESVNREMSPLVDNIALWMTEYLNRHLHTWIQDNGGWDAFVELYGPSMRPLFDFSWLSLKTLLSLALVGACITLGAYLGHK

Biological target: Bcl-2 (Homo sapiens, UniProt P10415)
Details: cell-free assays

- Ki: ≤ 1 nM
SMILES: CC1(C)CCC(c2ccc(Cl)cc2)=C(CN2CCN(c3ccc(C(=O)NS(=O)(=O)c4ccc(N[C@H](CCN5CCOCC5)CSc5ccccc5)c(S(=O)(=O)C(F)(F)F)c4)cc3)CC2)C1 [Navitoclax, 4-(4-{[2-(4-chlorophenyl)-5,5-dimethylcyclohex-1-en-1-yl]methyl}piperazin-1-yl)-N-(4-{[(2R)-4-(morpholin-4-yl)-1-(phenylsulfanyl)butan-2-yl]amino}-3-(trifluoromethanesulfonyl)benzene-1-sulfonyl)benzamide]
